AlphaSeq binding of Ab-14 light chain variants to a spike HR2 peptide

Antigen: PDVDLGDISGINAS, a 14-residue peptide of the SARS-CoV-2 spike HR2 region.

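The variants were designed computationally from a first round of random CDR variants and then made and measured. Group labels follow the data file (Ctrl: baseline library sampled from a position-specific scoring matrix, with some repeated check sequences; En: ensemble of fine-tuned language models; GP: Gaussian process model; HC: hill climbing; Gen: genetic algorithm; Gibbs: Gibbs sampling; a sequence that several methods proposed may carry one label only). AlphaSeq pools MATa yeast showing the antibodies with MATalpha yeast showing the peptide. Pairs that bind mate more often; barcode pairs of the diploids are counted by sequencing. Scores were corrected for input abundance and mapped to Kd with protein pairs of known affinity run in the same pool. The assay was run in six technical replicates.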

Ab-14 is the parent antibody, in scFv form: VH, then a (GGGGS)3 linker, then VL. The heavy chain is unchanged in all variants.
VH: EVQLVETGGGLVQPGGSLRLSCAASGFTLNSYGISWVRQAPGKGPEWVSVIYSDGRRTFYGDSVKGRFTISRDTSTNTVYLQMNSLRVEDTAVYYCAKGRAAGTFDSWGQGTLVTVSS
VL: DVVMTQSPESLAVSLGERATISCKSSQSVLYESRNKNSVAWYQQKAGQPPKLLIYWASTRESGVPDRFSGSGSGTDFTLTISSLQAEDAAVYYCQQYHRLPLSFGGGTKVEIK

Variants are written as CDR1, CDR2 and CDR3 of the light chain (limits as in the source). Parent: KSSQSVLYESRNKNSVA, WASTRES, QQYHRLPLS. This list holds designs with more than six substitutions. The read-out is the apparent dissociation constant on a log10 scale (nM): the lower, the stronger. A mean of the replicates is given; it leaves out those without a signal. "no signal" marks a missing value. The strain was present, yet no cells mated with the target were sequenced in any replicate, which points to weak or no binding. Entries are sorted by rising average, undetected variants last. A sequence measured in both rounds can read differently, since the two assays cover different ranges. The parent sequence was in this pool as ten entries: three were never detected, three once, and four in most replicates, with averages from 0.34 to 2.37. As a blank, each scFv also met three strains without target: over all light chain designs, 4% of these pairings were detected, typically at 2.64 and seldom below 1.59. The authors averaged sequences with at least three values out of six and counted those with two or fewer as poor binders.

CDR-L1,CDR-L2,CDR-L3,group,mean log10 Kd (nM),replicates with signal
HITYGMQVAGRHSSSIA,QAETRAK,QQYDRLPLI,En_Gen,-0.35,3 of 6
MISDLTMYGSRNLNSVA,DLSTRGS,QQYHRLPLS,En_HC,-0.18,6 of 6
KMAQGWEYESRNKNNVA,NASQRES,QQYHRLPLS,GP_Gibbs,-0.18,6 of 6
RVSSELMAGEIHYNAIA,NTKVLEY,QQYMRLPLG,En_Gibbs,-0.11,6 of 6
SISGFMKSSMAHHNSVA,DMTNRED,QQYDRLPLS,En_Gen,-0.03,6 of 6
KIGQSMAMTSHHINSVA,QSTTREE,QQYNRLPLS,En_HC,-0.01,6 of 6
TIGPMLATESRNKNSVA,GMQTRES,QQYHRLPLS,En_HC,0.01,6 of 6
KFSQMVNYESTHVNAVA,QMSTREE,QQYHRLPLS,En_HC,0.02,6 of 6
KLFQSYEYESRNKNSVA,NASQREC,QQYHRLPLS,GP_Gibbs,0.08,6 of 6
KLSGSVEQLSRNKNSVA,HASTREV,QAYHRLPLS,GP_Gibbs,0.08,6 of 6
MMSQVWGMGQRHINNVA,QTSTREE,QQYDRLPLI,En_Gen,0.16,6 of 6
SLYDATAMESRNKNPIA,DVSTRPS,QQYHRLPLS,En_HC,0.22,6 of 6
KLVNFMNRGTHHTSNIA,DAQNRDD,QQYARLPLA,En_Gen,0.25,6 of 6
KQSQSEPGESRNMNSVA,HASQRES,QQYHRLPLS,GP_Gibbs,0.33,6 of 6
KLSQSELYESRCDNSVA,SASTRCE,QQYHRLPLS,GP_Gibbs,0.37,6 of 6
KLDQKNRWNGMANYNVA,DSNIRVD,QQYHRLPLI,En_Gibbs,0.42,6 of 6
KLGNQERMNGMANQNVA,AMNTVVD,QEYHRLPLI,En_Gibbs,0.45,6 of 6
KLPLATMQESHSKNNVA,ELSTRGS,QQYHRLPLS,En_HC,0.47,6 of 6
IMSDSQERDASRLNNIA,DDYTRAT,QQYARLPLS,En_Gibbs,0.48,6 of 6
NLNDSPMYAQIHKDAIA,QETQRNA,QQYAKLPLS,En_Gibbs,0.48,6 of 6
TISTSMRYESSLKSAIA,NAQTRES,QQYHRLPIS,En_HC,0.48,6 of 6
KLYQSMGYLSRNKNSIA,DMSRREN,QQYHRLPLS,En_HC,0.50,6 of 6
TLYGLTNSMSKNKNNVA,EMSTREL,QQYDRLPLA,En_Gen,0.50,6 of 6
AMREDFYHGQVEMSAIA,DGEHLNM,QQYSHLPLS,En_Gibbs,0.54,6 of 6
KLSGATRLESRNKASVA,ENSTRGE,QQYFRLPLS,En_HC,0.57,6 of 6
KLSSITGHMQVEKNNVA,EMETREN,QQYNRLPLS,En_Gen,0.58,6 of 6
KLSQSVLYEMGMKNSVA,QAVTRMS,QQYHRLPLS,GP_Gibbs,0.63,6 of 6
KLGQSVAMTSRNKNNVA,DLNERGR,QQYHRLPLS,En_HC,0.66,6 of 6
MISNVMNTLTRYGNNVA,DLAEREE,QQYFRLPLS,En_Gen,0.70,6 of 6
HCSQSVWQEERQKNSVA,NASQREQ,QQYHRLPLS,GP_Gibbs,0.72,6 of 6
KILGEIENQSYNRNSVA,HSTTRED,QSYHRLPLS,En_HC,0.94,6 of 6
HITMMVGTKGYNKNSVA,NAETRED,QQYHRLPLS,En_HC,1.01,6 of 6
KLSMEPLVEWNRAQAIA,DAHASYI,QQYFHLPLY,En_Gibbs,1.04,1 of 6
YFDQASMTENDKGNSIA,EENHKYN,QQYFQLPLI,En_Gibbs,1.18,6 of 6
HLGNEGDNQGNAKKSVA,DQNTVQL,QHYSRLPLT,En_Gibbs,1.19,6 of 6
KLSMLHWYWSRNKNSVA,EASTREQ,QQYHRLPLS,GP_Gibbs,1.22,6 of 6
TLSGLMDMTSRNVNSVA,DLTTRGN,QQYHRLPLS,En_HC,1.32,6 of 6
YAQMPFNEVGKDEQNIA,NATIRES,QQYFRLPIL,En_Gibbs,1.42,6 of 6
HMSMLTLMGMRQRNSVA,QMTMREN,QQYDRLPLM,En_Gen,1.44,6 of 6
HTQHLGFGDPYHWNNVA,EVSQVCS,QQYARLPLT,En_Gibbs,1.44,6 of 6
KISQLVNFEGKSKNSVA,QMSTRES,QQYDRLPLS,En_HC,1.47,6 of 6
TISTSANYESTNINSVA,ELTTRGS,QQYERLPLS,En_HC,1.63,6 of 6
MISQLMNMGTFAINSVA,QAEIRNA,QQYDRLPLT,En_Gen,1.77,6 of 6
QLYAVNDLTSKESNNVA,EQTTREN,QQYHRLPLS,En_HC,1.83,3 of 6
MVTQMAMTGMKNKRSVA,NATMREY,QQYHRLPLI,En_Gen,1.84,6 of 6
KLQGSHLYESRNKNSVA,HASLRLS,QCYHRLPLS,GP_Gibbs,2.06,6 of 6
IVSQLMLWGMHVKNSIA,EAQTRVN,QQYERLPLF,En_Gen,2.29,3 of 6
SISMLLNFESKIGNNVA,QMETRIN,QQYDRLPLS,En_Gen,2.35,5 of 6
QISLNGEDGEPYEYAVA,EGSIADA,QQYHRLPLS,En_Gibbs,2.37,5 of 6
HLSFPWQSGHDSTNAVA,NDSTLMT,QHYNRLPLS,En_Gibbs,3.36,4 of 6
HMSVLTLQGMRHRNSVA,QMTTREN,QQYDHLPLS,En_Gen,no signal,0 of 6
KDDQSVGYESRWSNSVA,RASTRES,QGYHRLPLS,Ctrl,no signal,0 of 6
HVSEMIFAQMKARNSVA,ENSTREA,QQYDRLPLS,En_HC,no signal,0 of 6

The opening 4 entries, copied out:

| CDR-L1 | CDR-L2 | CDR-L3 | group | mean log10 Kd (nM) | replicates with signal |
|---|---|---|---|---|---|
| HITYGMQVAGRHSSSIA | QAETRAK | QQYDRLPLI | En_Gen | -0.35 | 3 of 6 |
| MISDLTMYGSRNLNSVA | DLSTRGS | QQYHRLPLS | En_HC | -0.18 | 6 of 6 |
| KMAQGWEYESRNKNNVA | NASQRES | QQYHRLPLS | GP_Gibbs | -0.18 | 6 of 6 |
| RVSSELMAGEIHYNAIA | NTKVLEY | QQYMRLPLG | En_Gibbs | -0.11 | 6 of 6 |

The measurements come from Li et al. 2023 (doi:10.1038/s41467-023-39022-2) through the FLAb antibody collection.